Test results reported in ChEMBL document CHEMBL1148806, “Nitric oxide donor beta2-agonists: furoxan derivatives containing the fenoterol moiety and related furazans” (J Med Chem, 2007).
Activity calls are given as the source filed them. The rule behind the calls is not given here.

The chains behind the UniProt entries cited, without tags or fusion partners.
UniProt P10608, whole entry, looked up: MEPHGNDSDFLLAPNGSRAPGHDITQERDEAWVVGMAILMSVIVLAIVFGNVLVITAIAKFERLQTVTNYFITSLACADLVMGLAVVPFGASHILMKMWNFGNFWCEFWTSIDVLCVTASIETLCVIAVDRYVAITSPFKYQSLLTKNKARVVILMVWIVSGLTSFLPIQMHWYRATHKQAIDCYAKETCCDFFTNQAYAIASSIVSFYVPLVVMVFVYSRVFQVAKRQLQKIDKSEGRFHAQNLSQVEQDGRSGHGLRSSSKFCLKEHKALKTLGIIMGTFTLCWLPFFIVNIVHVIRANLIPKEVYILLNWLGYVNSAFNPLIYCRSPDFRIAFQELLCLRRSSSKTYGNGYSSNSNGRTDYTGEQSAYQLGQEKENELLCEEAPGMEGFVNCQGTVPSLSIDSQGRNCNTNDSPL

Target: Beta-2 adrenergic receptor (Rattus norvegicus) (UniProt P10608)
Experiment: Vasodilating activity against phenylephrine-induced contractions in rat thoracic aorta
Type: functional, tissue-based

## CC(Cc1ccc(O)cc1)NCC(O)c1cc(O)cc(O)c1 (stereo unspecified)
  Activity: inactive
